Data reported in patent US5858992A, “Non-reducing saccharides, their preparation and use” (Kabushiki Kaisha Hayashibara Seibutsu Kagaku Kenkyujo, priority 1995, dated 1999).

Test system: glucosyltransferase
Test: Inhibition of insoluble glucan formation by glucosyltransferase from dental caries-inducing microorganism
Assay type: biochemical, Streptococcus sobrinus strain (ATCC 27351)
Conditions: sucrose plus test saccharide (one ml of one w/v % each), 37° C., 16 hours
Experimental: To a mixture solution consisting of one ml of one w/v % sucrose solution, one ml of one w/v % of a test saccharide solution, and 1.5 ml of 0.1M phosphate buffer (pH 6.8) was added 0.5 ml solution containing a crude glucosyltransferase specimen in a total protein content of 10 mg, and the mixture solution was placed in a small test tube which was then fixed and slanted to give a grade 30 degrees and allowed to react at 37° C. for 16 hours. The reaction mixture was transferred gently to another test tube and mixed with a solution obtained by washing carefully with 4 ml water the remaining substances adhered to the inner walls of the small test tube, and the mixture solution was centrifuged to obtain a precipitate as a non-adsorbed glucan. The amounts of the adsorbed- and non-adsorbed glucans thus obtained were respectively quantified by the anthrone-sulfuric acid method, and the total amount of them was regarded as the amount of the formed insoluble glucans. As a control system, a reaction system using water in place of the test saccharide solution, i.e. a reaction system using sucrose as a saccharide, was provided. […]

Question: Which results are given for OC[C@H]1O[C@H](OC[C@H]2OC(O)[C@H](O)[C@@H](O)[C@@H]2O)[C@H](O)[C@@H](O)[C@@H]1O (stereo partly drawn) [Isomaltose, reference compound]?
Answer: Yield of non-adsorbed glucans (sucrose alone control 923): 305 pg/mL; Yield of adsorbed glucans (sucrose alone control 1,160): 67 pg/mL; Inhibitory percentage (%) on insoluble glucans formation (vs sucrose alone): 82.2%
